Experimental data published in patent US9765075B2, “Substituted bridged urea analogs as sirtuin modulators” (GLAXOSMITHKLINE LLC, priority 2013, dated 2017).

Target: T1, hSIRT1(229-516) (Homo sapiens, UniProt Q96EB6)
T1 construct: hSIRT1(229-516)
T1 sequence (Q96EB6 229-516): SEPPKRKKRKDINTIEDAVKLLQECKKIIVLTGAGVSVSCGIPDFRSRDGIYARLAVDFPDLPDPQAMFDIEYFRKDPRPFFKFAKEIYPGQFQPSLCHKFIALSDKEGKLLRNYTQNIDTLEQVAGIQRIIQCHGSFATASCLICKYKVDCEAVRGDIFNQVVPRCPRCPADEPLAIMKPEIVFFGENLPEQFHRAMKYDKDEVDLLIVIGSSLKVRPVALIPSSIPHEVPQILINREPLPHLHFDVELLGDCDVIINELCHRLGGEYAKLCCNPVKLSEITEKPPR
Experiment: Steady-state kinetics, PNC1/GDH coupled assay, in presence of CBS peptide
Format: biochemical
Procedure: Final concentrations of the PNC1/GDH coupling system components used were 20 units/mL bovine GDH (Sigma-Aldrich), 1 uM yeast PNC1, 3.4 mM α-ketoglutarate, and 220 μM NADH or NADPH. An extinction coefficient of 6.22 mM^−1 cm^−1 and a pathlength of 0.81 cm was used to convert the absorbance at 340 nm to product concentration for the 150 uL reactions used. […] Quenched reactions were diluted 5-fold with 1:1 acetonitrile:methanol and spun at 5,000×g for 10 minutes to precipitate protein before being analyzed with an Agilent RapidFire 200 High-Throughput Mass Spectrometry System (Agilent, Wakefield, Mass.) coupled to an ABSciex API 4000 mass spectrometer fitted with an electrospray ionization source. The p53-based Ac-p53(W5) (Ac-RHKK^AcW-NH2) and FOXO-3a 21-mer (Ac-[…]^Ac[…]-NH2) peptides were obtained from Biopeptide, Inc. Deacetylation assays used the Ac-p53(W5) substrate unless otherwise noted.
Substrate KM determinations were performed by varying one substrate concentration at a fixed, saturating concentration of the second substrate. SIRT1 activation and inhibition assays were run in reaction buffer with 0.05% BSA at 25° C. and analyzed using the OAcADPr assay. Enzyme and compound were pre-incubated for 20 minutes before addition of substrates. […]

Compound: CC[C@H](C)[C@H](NC(=O)[C@H](Cc1ccc(O)cc1)NC(=O)[C@H](CCCNC(=N)N)NC(=O)[C@H](CC(N)=O)NC(=O)[C@@H]1CCCN1C(=O)[C@@H]1CCCN1C(=O)[C@H](CC(C)C)NC(=O)[C@H](Cc1ccccc1)NC(=O)[C@H](CC(C)C)NC(=O)[C@H](Cc1ccc(O)cc1)NC(=O)[C@@H](N)CCC(N)=O)C(=O)N[C@@H](Cc1ccccc1)C(=O)N[C@@H](Cc1c[nH]cn1)C(=O)NCC(=O)N[C@@H](C)C(=O)N[C@@H](CCC(=O)O)C(=O)N[C@H](C(=O)N[C@@H](Cc1ccc(O)cc1)C(=O)N[C@@H](CO)C(=O)N[C@@H](CC(=O)O)C(=O)N[C@@H](CO)C(=O)N[C@@H](CCC(=O)O)C(=O)N[C@@H](CC(=O)O)C(=O)N[C@@H](CC(=O)O)C(=O)N[C@H](C(=O)O)C(C)C)C(C)C [CBS peptide]
- lowering of the KM values for both peptide substrate and NAD+ of hSIRT1cc: 4-5 fold
- kcat (hSIRT1(229-516) in presence of the peptide, PNC1/GDH assay): 0.54 ± 0.01 s⁻¹
